Laboratory results: patent US6677306B1, “Chondrogenic and osteogenic inducing molecule” (Northwestern University, priority 1998, dated 2004)

Legend:
[1] = tested on: embryonic rat muscle fibroblasts (EMF); test: Cell number of EMF after exposure to factors; format: cell-based; details: after 5 days in culture, after a 24 h exposure
Description: In vitro assay for chondrogenic activity: The purified recombinant proteins were tested for biological activity by the assay for enhanced incorporation of ^35S—SO4 into proteoglycan (8,11) by embryonic rat muscle fibroblasts (EMF). The EMF were seeded onto type I collagen coated 96 well plates, with an initial loading of 10^4 cell/well. The cells were grown to near confluence in alpha MEM, 10% FBS, 1% Pen/Strep in 5 days. At day 5 the growth media was replaced with conditioning media (CM), alpha MEM, 0.5% FBS, 1% Pen/Strep, and grown for an additional 24 h. Fresh CM containing the factors to be tested, was added at the concentrations noted. Four hours later, 1 μCi^35 S—SO4 in 10 μL sterile PBS was added per well, and incubation was continued for 20 h. The ^35S—SO4 incorporated into secreted proteoglycan was determined by precipitation of the proteoglycan with cetyl pyridinium chloride, as described above, followed by scintillation counting of the precipitate. The cell layer was trypsinized and the number of cells counted. Incorporation is presented as counts per minute per cell ×10^3. Recombinant human BMP2 (A kind gift from the Genetics Institute, Boston, Mass.) and the bioactive crude S100 fractions from rat incisor dentin (Amar et al., 1991) and/or bovine dentin (see Example 1) were used as the positive controls. […]

[2] = tested on: embryonic muscle fibroblasts (EMF); test: EMF [35S]-SO4-incorporation assay (sulfate incorporation into proteoglycan); format: cell-based, rat; details: FIG. 2B
Excerpt: Embryonic Muscle Fibroblast (EMF) Tissue Culture Assay Embryonic Muscle Fibroblasts. Rat EMF cells were derived from the thigh muscles of 20 day old Sprague Dawley rat embryos for use in primary tissue culture assays using a modification of the Koskinen harvesting technique (Koskinen et al., 1985), and grown in growth media (GM) [α-Modified Eagle's Medium (αMEM , Life Technologies, Gaithersburg, Md.), containing 10% heat inactivated fetal bovine serum (FBS), 1% Penicillin/Streptomycin (P/S)] in 5% O2/95% air at 37° C. EMFs were frozen at passage 2 (P-2).
Short Term Culture and Labeling with ^35SO4—Sulfate. […]
Assay of ^35S Sulfate Incorporation Into Proteoglycans in the Medium. In a departure from the Koskinen et al. (1985) protocol, glycosaminoglycan synthesis was routinely determined by the measurement of incorporation of ^35S sulfate (ICM Biomedical, Costa Mesa, Calif.) into the total cetylpyridinium chloride (CPC)-precipitable materials in the media without prior papain digestion. […]
The samples were filtered through Whatman GF/A glass microfibre filters using a Millipore 12 well filtration device. […] Then 5 ml scintillation cocktail was added per vial and the radioactive counts were measured in the scintillation counter. […]

[3] = tested on: thigh muscle of Long-Evans rats; test: Bone formation in vivo, implantation in muscle with collagen carrier; design: species or system rat; details: 25 μg S-100 or 35 ng rhBMP-2 on collagen, intramuscular, nine weeks
Description: For implantation, 25 μg S-100 or 35 ng rhBMP-2 in 200 μl of PBS/0.1% BSA were absorbed onto 0.45 mg rat tail tendon collagen and lyophilized. The coated collagen was sterilized, then placed into sterile 5 mm gelatin capsules. Capsules were prepared with the collagen only as a negative control. Demineralized insoluble dentin matrix was used as a positive control. A 1 cm incision was made and a small intramucscular pouch was created by blunt dissection into the thigh muscle of the hind limbs of 100 g (4 week old) Long-Evans rats. The capsules were inserted, then the fascia was closed using 4-0 Vicryl sutures. The skin was closed with 4-0 silk sutures. All protocols for anesthesia, surgery, recovery, care and euthanasia were approved by the Northwestern University Animal Care and Use Committee. All test samples were implanted in the right thigh, all negative collagen controls in the left. At nine weeks, the animals were euthanized and the tissues were collected and prepared for histologic examination, using the von Kossa stain for the presence of mineral deposition.

B1: rhBMP-2: recombinant human BMP-2, gift from Genetics Institute, positive control (protein, UniProt P12643 283-396, looked up)
Bone morphogenetic protein 2: QAKHKQRKRLKSSCKRHPLYVDFSDVGWNDWIVAPPGYHAFYCHGECPFPLADHLNSTNHAIVQTLVNSVNSKIPKACCVPTELSAISMLYLDENEKVVLKNYQDMVVEGCGCR
cell number (growth factor action) [1]: increase
concentration level at which active in sulfate incorporation [2]: 50 to 100 ng/mL
cartilage/bone formation at implant, von Kossa histology [3]: heavily von Kossa stained mix of cartilage and bone
